Our source for the Ki values is ChEMBL document CHEMBL1145958, “Furoyl and benzofuroyl pyrroloquinolones as potent and selective PDE5 inhibitors for treatment of erectile dysfunction” (J Med Chem, 2003).

In this assay the target is cGMP-specific 3',5'-cyclic phosphodiesterase (Homo sapiens, UniProt O76074). As to the kind of experiment: Inhibitory activity against Phosphodiesterase 5 (PDE5) was evaluated.

As a reminder, the Ki is a measure of affinity in units of concentration, obtained from inhibition or displacement. High values mean lower affinity, low ones higher affinity. `O=C(c1cccnc1)N1Cc2c(nc3ccccc3c2O)C1c1ccc2c(c1)OCO2` (configuration not stated) gave a Ki of 3.32 nM.
`CN1CCN(C(=O)c2ccc(-c3ccc(C(=O)N4Cc5c(nc6ccccc6c5O)C4c4ccc5c(c4)CCO5)o3)cc2)CC1` (configuration not stated) returned a Ki of 1.78 nM. This Ki lies about 1.9-fold lower than the previous one.
